Test [1] addresses Transthyretin (TTR), N-terminal 6-histidine tag in place of the signal sequence (human) (UniProt P02766). In words: SPR; BIACORE3000; tetrameric His-TTR immobilised on Ni2+-charged NTA chip; Aβ 2.5-50 µM injected for 30 s; HBS-P (10 mM HEPES pH 9.0, 0.15 M NaCl, 0.005% Tween20, 0.5% DMSO); 1:1 Langmuir fit; apparent; three independent experiments. A general note: In SPR one partner is held on a chip, and binding of the other changes the refractive index at the surface.

Test [2] shares this target. The test is described as above. This is another data set of the same source.

Where “and” joins values, the source holds several entries; their conditions need not be identical. Equal entries are not always repeated. Where two headings read alike, the source gives them in different places.

For the substance “Amyloid-beta 1-40 peptide (peptide; other documents disagree on this pair)”, the Kd in test [1] was 38 µM and 53 µM and 98 µM; in test [2] it was 35 to 98 µM.

Values taken from PMC4191344, “Identification and characterization of Aβ peptide interactors in Alzheimer’s disease by structural approaches” (Frontiers in Aging Neuroscience, 2014).
